These are literature values, as cited in patent US20180353175A1, “Surgical Fastener with Broad Spectrum MMP Inhibitors” (Ethicon LLC, priority 2017, published 2018).

The chains behind the UniProt entries cited, without tags or fusion partners. Residues count along the entry.
UniProt P22894, 101-467, species assumed: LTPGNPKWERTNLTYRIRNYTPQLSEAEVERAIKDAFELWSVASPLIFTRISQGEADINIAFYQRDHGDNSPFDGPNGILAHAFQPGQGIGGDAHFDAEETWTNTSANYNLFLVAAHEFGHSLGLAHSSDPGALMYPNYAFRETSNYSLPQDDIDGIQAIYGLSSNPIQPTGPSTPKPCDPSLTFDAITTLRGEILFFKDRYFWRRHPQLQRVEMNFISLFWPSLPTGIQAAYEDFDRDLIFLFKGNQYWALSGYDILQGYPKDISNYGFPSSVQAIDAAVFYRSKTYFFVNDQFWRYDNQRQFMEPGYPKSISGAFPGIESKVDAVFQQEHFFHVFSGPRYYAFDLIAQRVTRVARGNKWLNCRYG

One may read the IC50 as the concentration at which inhibition is half-maximal.

For series [1], the target named is T1, MMP1 (Homo sapiens, UniProt P03956).
T1 sequence (P03956 100-469): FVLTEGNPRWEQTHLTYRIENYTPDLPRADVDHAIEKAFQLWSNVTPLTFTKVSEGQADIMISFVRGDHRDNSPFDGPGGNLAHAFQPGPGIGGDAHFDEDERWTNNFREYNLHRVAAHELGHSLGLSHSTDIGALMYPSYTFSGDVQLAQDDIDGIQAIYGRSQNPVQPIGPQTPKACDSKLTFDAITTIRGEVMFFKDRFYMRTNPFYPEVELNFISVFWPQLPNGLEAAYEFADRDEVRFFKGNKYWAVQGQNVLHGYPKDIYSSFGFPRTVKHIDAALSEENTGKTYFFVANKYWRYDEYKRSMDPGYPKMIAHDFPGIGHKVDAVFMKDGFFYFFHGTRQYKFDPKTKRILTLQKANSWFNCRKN

Series [2] deals with MMP8 (Homo sapiens, UniProt P22894).

With `COc1ccc(S(=O)(=O)N(Cc2cccnc2)C(C(=O)NO)C(C)C)cc1` (centres unmarked) [CGS-27023-A], the IC50 was 33 nM in series [1] and 8 nM in series [2].
